Our source for the EC50 values is patent US20160158267A1, “METHODS OF PREVENTING, REDUCING OR TREATING MACULAR DEGENERATION” (Inotek Pharmaceuticals Corporation, priority 2014, published 2016).

By UniProt entry, the sequences of proteins in these tests, tags left out.
UniProt P0DMS8, whole entry: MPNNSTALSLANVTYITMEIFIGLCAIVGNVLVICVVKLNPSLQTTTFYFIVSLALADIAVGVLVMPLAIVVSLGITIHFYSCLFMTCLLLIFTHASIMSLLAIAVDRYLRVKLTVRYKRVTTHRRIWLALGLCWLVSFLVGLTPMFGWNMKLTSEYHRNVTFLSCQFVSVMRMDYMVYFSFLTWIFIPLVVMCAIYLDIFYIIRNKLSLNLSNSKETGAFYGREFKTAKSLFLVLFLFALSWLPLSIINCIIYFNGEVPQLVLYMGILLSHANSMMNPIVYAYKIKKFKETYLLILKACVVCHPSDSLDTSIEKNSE

For the assay, the target named is human adenosine A3 receptor (Homo sapiens, UniProt P0DMS8). Put plainly: Inhibition of forskolin-stimulated adenylyl cyclase via A3 receptor, CHO cell membranes. The class given is biochemical. As to the method:
The A1 and A3 receptor-mediated inhibition of forskolin-stimulated adenylyl cyclase activity was tested in membranes prepared from CHO cells stably transfected with the human A1 and A3 adenosine receptors. The A2A and A2B receptor-mediated stimulation of basal cyclase activity was tested in membranes prepared from CHO cells stably transfected with the human A2A and A3 adenosine receptors.

pEC50: −log10 of the molar value.

The pEC50 is −log10 of the EC50, conventionally taken in molar units. Low readings indicate a high EC50, high ones a low EC50. In turn, `O=[N+]([O-])OC[C@H]1O[C@@H](n2cnc3c(NC4CCCC4)nc(Cl)nc32)[C@H](O)[C@@H]1O` [Compound B, ((2R,3S,4R,5R)-5-(2-chloro-6-(cyclopentylamino)-9H-purin-9-yl)-3,4-dihydroxytetrahydrofuran-2-yl)methyl nitrate] showed a pEC50 of less than 4.00.
